The record followed here is patent US9670203B2 (BeiGene, LTD., priority 2013, dated 2017).

Protein sequences, listed by entry. Tags and fused reporters are not part of them. Lines headed by an entry give the natural chain unless they say otherwise; changes in a name come on top.
UniProt P15056, whole entry V600E: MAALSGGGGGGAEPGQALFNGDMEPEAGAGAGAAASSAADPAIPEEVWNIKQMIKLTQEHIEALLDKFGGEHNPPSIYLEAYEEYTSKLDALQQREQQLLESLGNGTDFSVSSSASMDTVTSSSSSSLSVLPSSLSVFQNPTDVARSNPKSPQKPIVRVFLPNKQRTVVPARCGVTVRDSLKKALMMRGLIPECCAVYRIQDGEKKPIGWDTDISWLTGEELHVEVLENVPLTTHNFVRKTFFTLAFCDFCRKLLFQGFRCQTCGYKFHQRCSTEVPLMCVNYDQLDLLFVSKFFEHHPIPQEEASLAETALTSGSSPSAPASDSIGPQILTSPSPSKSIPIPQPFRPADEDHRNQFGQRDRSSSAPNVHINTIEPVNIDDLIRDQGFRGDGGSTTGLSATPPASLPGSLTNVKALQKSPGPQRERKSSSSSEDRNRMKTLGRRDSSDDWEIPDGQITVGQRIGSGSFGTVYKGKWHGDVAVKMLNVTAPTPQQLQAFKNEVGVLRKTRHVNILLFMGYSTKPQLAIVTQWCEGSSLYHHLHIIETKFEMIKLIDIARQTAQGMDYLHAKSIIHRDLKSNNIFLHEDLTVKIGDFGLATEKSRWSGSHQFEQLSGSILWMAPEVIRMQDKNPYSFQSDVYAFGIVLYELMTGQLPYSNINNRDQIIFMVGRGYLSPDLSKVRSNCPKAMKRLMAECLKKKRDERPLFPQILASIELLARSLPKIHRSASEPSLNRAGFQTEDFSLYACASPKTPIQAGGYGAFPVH
UniProt P15056, whole entry: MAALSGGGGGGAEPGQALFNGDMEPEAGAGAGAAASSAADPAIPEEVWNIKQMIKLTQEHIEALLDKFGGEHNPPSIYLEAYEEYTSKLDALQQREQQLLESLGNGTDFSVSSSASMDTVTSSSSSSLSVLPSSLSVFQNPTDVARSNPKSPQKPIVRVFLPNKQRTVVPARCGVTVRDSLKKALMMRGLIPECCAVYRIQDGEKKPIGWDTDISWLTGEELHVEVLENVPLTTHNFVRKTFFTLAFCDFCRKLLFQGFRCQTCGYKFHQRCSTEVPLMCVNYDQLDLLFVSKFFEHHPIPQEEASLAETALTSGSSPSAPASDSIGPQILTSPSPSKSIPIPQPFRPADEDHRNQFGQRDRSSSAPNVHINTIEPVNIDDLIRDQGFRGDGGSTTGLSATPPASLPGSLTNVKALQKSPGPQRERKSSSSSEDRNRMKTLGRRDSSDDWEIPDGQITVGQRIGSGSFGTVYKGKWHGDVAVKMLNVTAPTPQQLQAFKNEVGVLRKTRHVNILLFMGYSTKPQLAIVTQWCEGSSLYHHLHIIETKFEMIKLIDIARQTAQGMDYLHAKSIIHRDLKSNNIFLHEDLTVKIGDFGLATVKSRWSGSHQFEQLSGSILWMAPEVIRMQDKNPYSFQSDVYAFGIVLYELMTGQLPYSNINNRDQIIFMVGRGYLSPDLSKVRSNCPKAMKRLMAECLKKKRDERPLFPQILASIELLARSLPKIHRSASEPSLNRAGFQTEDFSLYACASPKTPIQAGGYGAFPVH
UniProt P04049, whole entry Y340D/Y341D: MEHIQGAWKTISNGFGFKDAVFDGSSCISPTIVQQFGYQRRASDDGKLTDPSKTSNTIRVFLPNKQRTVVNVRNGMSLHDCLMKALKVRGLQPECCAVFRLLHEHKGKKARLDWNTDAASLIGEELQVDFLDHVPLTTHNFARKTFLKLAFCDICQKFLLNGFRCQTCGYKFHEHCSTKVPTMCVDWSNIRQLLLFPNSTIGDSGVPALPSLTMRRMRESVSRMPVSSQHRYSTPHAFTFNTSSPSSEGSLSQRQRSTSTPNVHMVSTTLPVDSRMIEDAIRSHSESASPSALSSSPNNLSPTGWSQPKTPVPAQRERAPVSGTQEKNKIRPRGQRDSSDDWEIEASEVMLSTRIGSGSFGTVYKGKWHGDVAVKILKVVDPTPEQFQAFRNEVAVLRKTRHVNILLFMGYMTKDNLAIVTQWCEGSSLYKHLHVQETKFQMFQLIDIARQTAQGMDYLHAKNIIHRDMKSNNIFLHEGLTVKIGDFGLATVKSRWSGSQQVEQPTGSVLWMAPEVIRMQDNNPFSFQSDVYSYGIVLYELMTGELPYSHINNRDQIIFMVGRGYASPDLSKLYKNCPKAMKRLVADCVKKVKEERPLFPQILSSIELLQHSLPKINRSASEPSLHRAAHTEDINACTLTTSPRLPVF

Test [1] addresses B-Raf (V600E) (Homo sapiens (Human), UniProt P15056, V600E). The experiment in a line: Raf IC50 assay, time-resolved fluorescence energy transfer, B-Raf (V600E). Format: biochemical. The note with it: read-out: IC50 (nM) B_Raf^V600E; 0.1 mM ATP.
For test [2], the target named is C-Raf (Y340D/Y341D) (Homo sapiens (Human), UniProt P04049, Y340D/Y341D). The experiment in a line: Raf IC50 assay, time-resolved fluorescence energy transfer, C-Raf (Y340D/Y341D). The following applies: read-out: IC50 (nM) C-Raf; 0.1 mM ATP. Format: biochemical.
Test [3] addresses wild type B-Raf (Homo sapiens (Human), UniProt P15056). The test can be described thus: WT B-Raf IC50 assay, time-resolved fluorescence energy transfer. Format: biochemical. The note with it: read-out: IC50 (nM) B-Raf^WT Km ATP; Km ATP (2.9 μM ATP).
The subject of test [4] is A375. The test can be described thus: Anti-proliferative activity EC50 assay (CellTiter-Glo) in A375. The following applies: read-out: Cell Proliferation EC50 (nM) A375; 3-day exposure.

Structures are written as SMILES.

For `O=C1CCc2c(Oc3ccc4c(c3)[C@H]3[C@H](NC(=O)NCc5ccccc5C(F)(F)F)[C@H]3O4)ccnc2N1`, the half-maximal inhibitory concentration (IC50) in test [1] was 1.7 nM; in test [2], 0.34 nM; in test [3], 2.2 nM. Besides, in test [4], the EC50 is 178 nM.

Take `Cc1ccc(NC(=O)N[C@@H]2[C@H]3Oc4ccc(Oc5ccnc6c5CCC(=O)N6)cc4[C@@H]23)cc1C(F)(F)F`: the IC50 in test [1] was 17 nM; in test [2] it was 1.4 nM; in test [3], 26 nM.

With `O=C1CCc2c(Oc3ccc4c(c3)[C@H]3[C@H](NC(=O)NCc5ccccc5F)[C@H]3O4)ccnc2N1`, in test [1], the 50% inhibitory concentration (IC50) was 0.71 nM. Besides, the EC50 in test [4] worked out at 840 nM.
